Activity calls are given as the source filed them. No cut-off for these calls is given here.

Protein sequences, listed by entry. Tags and fused reporters are not part of them.
UniProt Q09472, whole entry: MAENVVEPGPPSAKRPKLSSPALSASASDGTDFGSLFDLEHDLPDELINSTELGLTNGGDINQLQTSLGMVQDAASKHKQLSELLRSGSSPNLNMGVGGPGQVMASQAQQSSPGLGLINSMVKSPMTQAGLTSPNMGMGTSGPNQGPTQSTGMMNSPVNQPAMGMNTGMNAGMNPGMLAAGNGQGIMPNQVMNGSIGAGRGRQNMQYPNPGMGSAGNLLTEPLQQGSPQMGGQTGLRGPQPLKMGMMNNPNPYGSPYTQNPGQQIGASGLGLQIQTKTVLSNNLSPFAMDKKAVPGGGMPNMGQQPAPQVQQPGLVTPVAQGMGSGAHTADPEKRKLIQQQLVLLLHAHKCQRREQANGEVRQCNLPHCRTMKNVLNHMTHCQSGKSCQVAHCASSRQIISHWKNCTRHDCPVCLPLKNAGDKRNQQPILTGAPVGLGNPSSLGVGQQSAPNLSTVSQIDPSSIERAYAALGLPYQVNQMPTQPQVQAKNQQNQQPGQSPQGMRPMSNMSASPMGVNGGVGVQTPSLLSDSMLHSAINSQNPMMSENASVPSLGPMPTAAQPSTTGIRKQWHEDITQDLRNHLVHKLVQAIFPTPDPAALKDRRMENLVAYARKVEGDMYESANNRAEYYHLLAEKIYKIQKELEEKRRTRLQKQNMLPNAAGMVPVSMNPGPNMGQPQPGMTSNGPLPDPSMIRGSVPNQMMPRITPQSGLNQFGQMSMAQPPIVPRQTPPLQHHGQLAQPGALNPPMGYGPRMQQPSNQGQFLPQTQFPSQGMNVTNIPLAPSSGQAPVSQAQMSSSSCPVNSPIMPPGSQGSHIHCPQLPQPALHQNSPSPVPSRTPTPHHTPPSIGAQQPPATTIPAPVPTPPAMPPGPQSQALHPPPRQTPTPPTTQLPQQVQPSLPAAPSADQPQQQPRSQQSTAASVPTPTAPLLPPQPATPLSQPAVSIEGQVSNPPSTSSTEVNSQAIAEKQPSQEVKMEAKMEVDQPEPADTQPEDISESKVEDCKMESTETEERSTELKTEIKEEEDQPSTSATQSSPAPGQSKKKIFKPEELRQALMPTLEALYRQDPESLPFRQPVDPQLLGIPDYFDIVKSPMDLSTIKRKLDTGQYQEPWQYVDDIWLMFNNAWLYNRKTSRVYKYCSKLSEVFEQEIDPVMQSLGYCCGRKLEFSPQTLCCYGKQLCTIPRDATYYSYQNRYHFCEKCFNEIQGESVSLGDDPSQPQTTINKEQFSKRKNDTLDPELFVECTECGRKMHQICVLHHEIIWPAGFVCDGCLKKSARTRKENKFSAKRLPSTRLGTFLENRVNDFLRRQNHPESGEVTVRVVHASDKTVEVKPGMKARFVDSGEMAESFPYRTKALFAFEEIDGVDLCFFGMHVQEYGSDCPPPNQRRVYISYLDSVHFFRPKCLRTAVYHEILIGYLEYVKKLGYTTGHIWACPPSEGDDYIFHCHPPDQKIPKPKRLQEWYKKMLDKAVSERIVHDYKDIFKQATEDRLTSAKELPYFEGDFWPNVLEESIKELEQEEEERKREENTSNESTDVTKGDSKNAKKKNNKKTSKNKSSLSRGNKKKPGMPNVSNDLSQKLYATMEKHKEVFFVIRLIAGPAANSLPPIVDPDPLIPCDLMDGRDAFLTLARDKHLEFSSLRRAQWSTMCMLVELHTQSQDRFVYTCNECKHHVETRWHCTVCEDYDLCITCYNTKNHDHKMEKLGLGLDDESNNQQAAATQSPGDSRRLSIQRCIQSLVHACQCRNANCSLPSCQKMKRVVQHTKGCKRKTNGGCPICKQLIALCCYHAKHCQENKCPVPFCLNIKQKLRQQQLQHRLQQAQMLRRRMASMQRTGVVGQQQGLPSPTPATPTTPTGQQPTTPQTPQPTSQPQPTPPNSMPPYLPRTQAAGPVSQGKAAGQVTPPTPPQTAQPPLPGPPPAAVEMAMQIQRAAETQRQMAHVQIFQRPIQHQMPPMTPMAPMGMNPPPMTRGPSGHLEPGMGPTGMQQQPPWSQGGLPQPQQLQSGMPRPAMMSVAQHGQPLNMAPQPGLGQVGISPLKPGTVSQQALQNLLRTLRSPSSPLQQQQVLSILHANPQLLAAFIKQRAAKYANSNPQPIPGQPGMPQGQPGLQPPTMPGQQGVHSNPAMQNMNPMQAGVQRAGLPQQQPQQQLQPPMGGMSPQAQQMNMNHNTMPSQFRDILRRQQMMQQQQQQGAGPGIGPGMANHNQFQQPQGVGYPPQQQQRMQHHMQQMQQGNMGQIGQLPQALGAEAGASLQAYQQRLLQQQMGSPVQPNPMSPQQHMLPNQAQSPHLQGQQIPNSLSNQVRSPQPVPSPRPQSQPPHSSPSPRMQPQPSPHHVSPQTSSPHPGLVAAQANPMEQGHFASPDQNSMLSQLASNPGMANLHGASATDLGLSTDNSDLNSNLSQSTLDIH

In ChEMBL document CHEMBL5120858, “Structure-activity relationship and antitumor activity of 1,4-pyrazine-containing inhibitors of histone acetyltransferases P300/CBP” (Eur J Med Chem, 2022) one finds inhibition data, which are given here for one molecule.

Test [1] deals with T1, Histone acetyltransferase p300 (Homo sapiens, UniProt Q09472). Briefly: Non-competitive inhibition of human p300 HAT domain (1195 to 1673 residues) using acetyl-coA as substrate preincubated for 10 mins followed by varying concentrations of substrate addition and measured after 30 mins by Cheng-Prusoff plot analysis. Particulars: time 40.0 min.
The target in test [2] is T1, Histone acetyltransferase p300. Nature of the test: Competitive inhibition of human p300 HAT domain (1195 to 1673 residues) using histone H3 peptide as substrate preincubated for 10 mins followed by varying concentrations of substrate addition and measured after 30 mins by Cheng-Prusoff plot analysis. Conditions: time 40.0 min.

On to `c1cc(-c2ccc(-c3ncc(OCC4CCNCC4)nc3-c3ccc(-c4ccoc4)cc3)cc2)co1`, for which the inhibition result in test [1] and in test [2] was “Active” throughout.
